This is a selection; strong and weak results do not stand in their true shares. Some tests of the compounds listed are not included; inactive here does not mean inactive elsewhere. The source made the active and inactive calls.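 How the source made its calls: active means mean replicate inhibition above about 25%, with every replicate also reaching it (limit read from the data, passing the limit was not always enough); inconclusive means only one of those two criteria met; inactive means neither criterion met.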

Protein sequences, listed by entry. Tags and fused reporters are not part of them.
UniProt Q15084, whole entry: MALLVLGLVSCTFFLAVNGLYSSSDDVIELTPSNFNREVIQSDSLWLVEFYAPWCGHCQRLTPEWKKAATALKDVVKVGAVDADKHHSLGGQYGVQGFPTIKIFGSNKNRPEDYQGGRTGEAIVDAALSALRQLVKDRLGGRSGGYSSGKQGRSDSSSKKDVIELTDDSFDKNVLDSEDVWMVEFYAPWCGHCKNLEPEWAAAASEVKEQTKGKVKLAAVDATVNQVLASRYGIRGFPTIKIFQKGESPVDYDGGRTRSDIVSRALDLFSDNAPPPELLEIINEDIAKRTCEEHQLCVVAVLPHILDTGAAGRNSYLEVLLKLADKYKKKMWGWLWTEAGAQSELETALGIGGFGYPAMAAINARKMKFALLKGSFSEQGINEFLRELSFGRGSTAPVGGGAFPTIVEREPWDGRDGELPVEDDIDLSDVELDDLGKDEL

What is called inhibition is the change of the read-out against control, counted positive when it falls.

This test deals with Protein disulfide-isomerase A6 (Homo sapiens) (UniProt Q15084). In words: inhibitors of ERp5-driven insulin aggregation, primary screen, biochemical, turbidity, absorbance 650 nm, single point (AID 651711). Particulars: 90 min, at 9.99 µM, hits give high values.
In the case of `COc1cc(C(=O)NCC2(N(C)C)CCCCC2)c([N+](=O)[O-])cc1OC`, the inhibition is inactive: 2.68%.
Turning to `CN(C)C1(CNC(=O)c2ccc(Br)cc2)CCCCC1`, the inhibition was inactive: 2.99%.
With `O=C(NCC1(N2CCCCC2)CCCCC1)c1cccc(Cl)c1` the figure was inactive: -0.658%; with `COc1cccc(C(=O)NCC2(N3CCCCC3)CCCCC2)c1`, inactive: 2.36%; with `COc1ccc(Cl)cc1C(=O)NCC1(N(C)C)CCCCC1`, inactive: -2.5%.
Consider `CC(C)Oc1ccc(C(=O)NCC2(N(C)C)CCCCC2)cc1`, for which the inhibition is inactive: -0.491%.
To `O=C(OCCN1CCCC1)C(O)(c1ccccc1)c1ccccc1` belongs inactive: 9.42%; to `COc1ccc(Br)c(C(=O)NCC2(N3CCCCC3)CCCCC2)c1`, inactive: 0.82%.
Consider `C=C(C)C#CC(O)(C(=O)OC1CCN(C)CC1)c1ccccc1` (configuration not stated), for which the inhibition is inactive: -5.4%.
To `CN1[C@@H]2CC[C@H]1CC(OC(=O)C(O)(c1ccccc1)c1ccccc1)C2` (some centres not stated) belongs inactive: 0.972%; to `O=C(NCC1(N2CCCCC2)CCCCC1)c1cc([N+](=O)[O-])ccc1Cl`, inactive: -4.43%.
As for `Cc1ccc(C(=O)NCC2(N3CCCCC3)CCCCC2)cc1`, the inhibition was inactive: 0.336%.
Consider `CCN(CC)CC(C)C(C)OC(=O)C(O)(c1ccccc1)c1ccccc1` (configuration not stated), for which the inhibition is inactive: 4.7%.
As for `COc1cc(SC)ccc1C(=O)NCC1(N(C)C)CCCCC1`, the inhibition was inactive: 1.28%.
With `Cc1ccccc1C(=O)NCC1(N2CCCCC2)CCCCC1` the figure was inactive: -3.81%.
As to `CN(C)C1CCCC1OC(=O)C(O)(c1ccccc1)c1ccccc1` (configuration not stated), the inhibition is inactive: -1.54%.
With `CN(C)c1ccc(C(=O)NCC2(N(C)C)CCCCC2)cc1` the figure was inactive: 1.28%.
With `Cc1cc(C(=O)NCC2(N3CCCCC3)CCCCC2)ccc1[N+](=O)[O-]`, the inhibition is inactive: -0.975%.
With `O=C(NCC1(N2CCCCC2)CCCCC1)c1cccc(Br)c1` the figure was inactive: 6.85%; with `COc1ccc(C(=O)NCC2(N(C)C)CCCCC2)cc1`, inactive: 3.7%; with `C=CCN1CCN(CCOC(=O)C(O)(c2ccccc2)c2ccccc2)CC1`, inactive: -5.47%.
To `O=C(NCC1(N2CCCCC2)CCCCC1)c1cc(F)c(F)cc1Cl` belongs inactive: -0.967%.
